Earlier results, collected in patent US20250064807A1, “Promoting Hair Growth and Treatment of Hair Loss or Excessive Hair Shedding” (Samson Clinical Pty Ltd, priority 2017, published 2025).
Read-outs that look alike come from different tables or passages of the source.

Conditions: cited from earlier work

## Nc1cc(N2CCCCC2)nc(N)[n+]1[O-] [minoxidil, 2,4-Diamino-6-piperidinopyrimidine 3-oxide]
In vivo
  share of minoxidil absorbed topically (cutaneous absorption): 1-4%
Oral dose as approved by the TGA for severe refractory hypertension
  share of orally administered dose absorbed gastrointestinally: 95%
Topical application
  share of minoxidil absorbed topically (cutaneous absorption): 1.5-4%
